The values that follow come from article PMC12715756, “Next-Generation MDMA Analogue SDMA: Pharmacological and Metabolic Insights” (ACS Chemical Neuroscience, 2025).

Amino acid sequences for entries named in this document (tags omitted). Residues count along the entry.
UniProt Q01959, whole entry: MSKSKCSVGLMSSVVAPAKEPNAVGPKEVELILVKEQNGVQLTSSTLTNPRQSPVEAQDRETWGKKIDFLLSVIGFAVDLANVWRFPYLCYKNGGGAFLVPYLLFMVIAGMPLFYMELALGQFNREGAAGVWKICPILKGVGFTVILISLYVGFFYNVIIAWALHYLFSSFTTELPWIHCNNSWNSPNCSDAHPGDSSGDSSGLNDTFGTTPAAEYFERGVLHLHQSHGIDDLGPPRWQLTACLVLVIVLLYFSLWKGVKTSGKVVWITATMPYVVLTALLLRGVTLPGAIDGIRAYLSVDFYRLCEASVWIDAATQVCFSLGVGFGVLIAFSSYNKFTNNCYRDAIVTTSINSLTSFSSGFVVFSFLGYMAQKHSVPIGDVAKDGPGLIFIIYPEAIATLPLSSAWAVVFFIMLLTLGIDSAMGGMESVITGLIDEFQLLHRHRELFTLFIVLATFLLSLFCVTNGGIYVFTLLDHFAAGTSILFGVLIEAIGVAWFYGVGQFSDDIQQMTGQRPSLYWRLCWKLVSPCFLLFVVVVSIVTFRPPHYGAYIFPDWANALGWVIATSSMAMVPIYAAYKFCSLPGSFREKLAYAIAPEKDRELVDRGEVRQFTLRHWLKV
UniProt P28335, 33-458: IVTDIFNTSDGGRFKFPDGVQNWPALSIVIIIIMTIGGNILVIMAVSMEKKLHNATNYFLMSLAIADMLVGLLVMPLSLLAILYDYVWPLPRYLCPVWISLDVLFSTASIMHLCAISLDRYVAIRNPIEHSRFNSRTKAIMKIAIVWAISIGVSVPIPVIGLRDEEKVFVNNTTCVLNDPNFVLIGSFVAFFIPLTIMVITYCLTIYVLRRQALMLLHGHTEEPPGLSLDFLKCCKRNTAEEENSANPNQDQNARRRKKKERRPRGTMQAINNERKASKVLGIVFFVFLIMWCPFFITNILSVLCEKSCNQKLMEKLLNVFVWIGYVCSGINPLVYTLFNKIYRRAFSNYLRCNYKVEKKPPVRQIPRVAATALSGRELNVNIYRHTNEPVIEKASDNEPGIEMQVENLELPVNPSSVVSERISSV

Test [1] has as its target T1, DAT (Homo sapiens, UniProt Q01959). As to conditions: uptake inhibition; DAT/SERT ratio = 1/DAT / 1/SERT.
Test [2] deals with T1, DAT. As to conditions: efflux assays.
The target of test [3] is 5-HT2C (Homo sapiens, UniProt P28335). Description: cell-based.

As for `CC(N)Cc1ccc2c(c1)OCO2` (stereo not drawn) [MDA, 3,4-Methylenedioxyamphetamine, reference compound], in test [1], the “DAT/SERT ratio (IC50)” value came to 2.03. Also, in test [2], the “DAT/SERT ratio (EC50)” value came out at 0.65.

Take `CNC(C)Cc1ccc2c(c1)OCO2` (stereo not drawn) [MDMA, 3,4-Methylenedioxymethamphetamine]: in test [1], the “DAT/SERT ratio (IC50)” value came out at 0.42. Moreover, in test [3], the EC50 was 664 nM. The Emax in test [3] (HEK-293T, read-out: Emax ± SEM, %5-HT response 5-HT2C) was determined as 85 ± 6%. Also, the “DAT/SERT ratio (EC50)” value in test [2] was found to be 0.21.
